From PubChem BioAssay AID504937 (National Center for Advancing Translational Sciences (NCATS), 2011)
The list shows a part of the results, in another mix than the full data. Activity calls are given as the source filed them. Calls follow the shape of the dose curve; as a rule, active = well fitted inhibition curve with a large enough effect; inconclusive = small, poorly fitted or top-dose-only effect; inactive = no such curve, though single readings can be large or run the other way.

Amino acid sequences for entries named in this document (tags omitted). A change or cut given only in a name is not applied to a line headed by its entry.
UniProt P17405: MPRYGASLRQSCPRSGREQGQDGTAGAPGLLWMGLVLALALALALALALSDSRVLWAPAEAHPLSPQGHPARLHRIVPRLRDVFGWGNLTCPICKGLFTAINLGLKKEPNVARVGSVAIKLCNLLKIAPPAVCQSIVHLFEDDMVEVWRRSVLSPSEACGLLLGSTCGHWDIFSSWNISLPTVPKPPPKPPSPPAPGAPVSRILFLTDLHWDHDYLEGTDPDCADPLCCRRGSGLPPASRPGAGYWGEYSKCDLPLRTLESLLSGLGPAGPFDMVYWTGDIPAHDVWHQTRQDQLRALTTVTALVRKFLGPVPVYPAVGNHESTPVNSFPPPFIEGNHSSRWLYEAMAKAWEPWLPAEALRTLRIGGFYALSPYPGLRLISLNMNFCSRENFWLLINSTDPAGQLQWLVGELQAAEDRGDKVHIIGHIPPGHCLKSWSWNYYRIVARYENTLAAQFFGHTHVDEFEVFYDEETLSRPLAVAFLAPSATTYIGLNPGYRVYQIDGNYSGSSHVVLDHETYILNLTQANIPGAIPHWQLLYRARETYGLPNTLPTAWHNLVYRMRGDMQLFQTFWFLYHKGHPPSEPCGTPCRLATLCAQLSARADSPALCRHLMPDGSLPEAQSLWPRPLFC

Target: Sphingomyelin phosphodiesterase (Homo sapiens) (UniProt P17405)
Experiment: Inhibitors of Secretory Acid Sphingomyelinase (S-ASM): qHTS
Conditions: placental ASM, HMU-PC fluorogenic substrate (series up to 57.5 µM), 60 min; at 57.5 µM (top of the series)

| Structure (SMILES) | activity change, negative = inhibition |
| --- | --- |
| COc1ccc(C2=NCC(CBr)S2)cc1 (stereo not drawn) | inactive: 1.08% |
| CC(=O)N1C2C3N(C(C)=O)C1C1N(C(C)=O)C(C(N1C(C)=O)N3C(C)=O)N2C(C)=O | inactive: 2.98% |
| O=[N+]([O-])c1cccc2n[nH]nc12 | inactive: 3.4% |
| O=[N+]([O-])c1cc([N+](=O)[O-])c(CCNc2ccccc2)c([N+](=O)[O-])c1 | inactive: -0.705% |
| CCc1nc2c(n1)c1c(non1O)c1c2no[n+]1[O-] | inactive: -0.595% |
| Cc1ccc(NP(=O)(Oc2ccccc2)Oc2ccccc2)nc1 | inactive: 4.2% |
| C[N+]1=C2C=CC=CC=C2SC12C([N+](=O)[O-])=CC([N+](=O)[O-])=C[C-]2[N+](=O)[O-] (stereo not drawn) | inactive: -12.3% |
| Nc1ccc([As](=O)(O)c2ccc(N)cc2)cc1 | inactive: 3.98% |
| CCN(/C(=N/P(=O)(N1CCOCC1)N1CCOCC1)N1CCOCC1)c1ccc(OC)cc1 | inactive: 3.87% |
| CN(C)C(=O)OCCc1n(C)cc[n+]1C | inactive: 4.66% |
| CC(C)=N/N=C(\N)N[N+](=O)[O-] | inactive: 2.98% |
| CC1CCN(C(=O)Oc2c(Cl)cc(Cl)c3cccnc23)CC1 | inactive: -3.54% |
| O=P1(N(CCCl)CCCl)OCCCS1 (stereo not drawn) | inactive: 5.15% |
| CC(C)(C)C(=O)NC(Sc1ccncn1)C(Cl)(Cl)Cl (stereo not drawn) | inactive: -1.08% |
| O=[N+]([O-])c1ncn(CCn2ncnc2[N+](=O)[O-])n1 | inactive: -2.7% |
| COC(=O)C1(C)COP(=O)(Nc2ccccc2)OC1 (stereo not drawn) | inactive: 2.18% |
| O=[N+]([O-])c1cccc(NC2=NCC(CBr)S2)c1 (stereo not drawn) | inactive: -9.64% |
| O=C(O)CNc1ccc([As](=O)(O)O)cc1 | inactive: -0.401% |
| COc1ccc(N)c([N+](=O)[O-])c1[N+](=O)[O-] | inactive: -4.22% |
| CN(C)C1(CNC(=O)c2ccc(Cl)c(S(N)(=O)=O)c2)CCCCC1 | inactive: -3.35% |

| Structure (SMILES) | activity change, negative = inhibition |
| --- | --- |
| O=P(Nc1ccccn1)(c1ccc(Br)cc1)c1ccc(Br)cc1 | inactive: -1.59% |
| C[C@H]1OP(=O)(Oc2ccccc2)[C@H](O)[C@H](O)[C@H]1N=[N+]=[N-] (stereo partly drawn) | inactive: -6.24% |
| O=P(Nc1nc2ccccc2s1)(c1ccccc1)c1ccccc1 | inactive: 3.28% |
| CC(=O)NC(SC(=S)N(C)C)C(Cl)(Cl)Cl (stereo not drawn) | inactive: 1.4% |
| O=[N+]([O-])c1ncn(CCn2cnc([N+](=O)[O-])n2)n1 | inactive: 0.615% |
| O=[N+]([O-])c1ccc(O)c(/C=N/Nc2ccc([N+](=O)[O-])cc2[N+](=O)[O-])c1 | inactive: -7.77% |
| O=[As](O)(c1ccccc1)c1ccc(O)cc1 | inactive: 0.0863% |
| C(Cc1nn[nH]n1)Cc1nn[nH]n1 | inactive: 3.03% |
| Nc1ccc([As](=O)(O)c2ccc([N+](=O)[O-])cc2)cc1 | inactive: 1.29% |
| O=C(OC1CN2CCC1CC2)c1cccc(Cl)c1 (stereo not drawn) | inactive: -1.1% |
| O=P(Nc1nccs1)(c1ccccc1)c1ccccc1 | inactive: 4.1% |
| CC(C)C(=O)NC(Sc1ccccc1)C(Cl)(Cl)Cl (stereo not drawn) | inactive: -3.23% |
| c1nnnn1CCn1cnnn1 | inactive: -0.164% |
| CCOc1ccc(C2=NCC(CBr)S2)cc1 (stereo not drawn) | inactive: 6.04% |
| CCc1cc(O)c([N+](=O)[O-])c(C)c1[N+](=O)[O-] | inactive: -5.16% |
| CC(C)(C)C(=O)NC(Sc1ccccc1)C(Cl)(Cl)Cl (stereo not drawn) | inactive: 0.999% |
| COC(=O)C1(C)COP(=O)(NCc2ccccc2)OC1 (stereo not drawn) | inactive: 0.592% |
| CC(=O)c1ccc(N2CC2c2ccncc2)cc1 (stereo not drawn) | inactive: -2.53% |
| N#C/C(=C\c1ccc(N(CCBr)CCBr)cc1)C(N)=O | inactive: 42% |
| C[C@H]1OP(=O)(Oc2ccccc2)C[C@@H]2O[C@@H]21 (stereo partly drawn) | inactive: 9.98% |

| Structure (SMILES) | activity change, negative = inhibition |
| --- | --- |
| C[C@@H]1C=CCP(=O)(Oc2ccccc2)O1 (stereo partly drawn) | inactive: 14.6% |
| Cc1ccccc1CN(C)C(=O)COC(=O)C(O)(c1ccccc1)c1ccccc1 | inactive: -2.63% |
| CC(=O)Nc1ccc(Oc2c([N+](=O)[O-])cc([N+](=O)[O-])cc2[N+](=O)[O-])cc1 | inactive: -9.18% |
| CC(=O)Nc1ccc([As](=O)(O)O)c(O)c1 | inactive: -12.1% |
| O=C(NC1CCS(=O)(=O)C1)NP(=S)(Oc1ccccc1)Oc1ccccc1 (stereo not drawn) | inactive: -3.83% |
| CCNC(=S)/N=C(\N)N[N+](=O)[O-] | inactive: -1.63% |
| Cc1ccc(NP(=O)(Oc2cccc(C)c2)Oc2cccc(C)c2)nc1 | inactive: -1.74% |
| c1ccc(-c2nn[nH]n2)c(-c2nn[nH]n2)c1 | inactive: 1.85% |
| O=P1(N(CCCl)CCCl)OCCC2CCCCN21 (stereo not drawn) | inactive: 2.32% |
| CC(=O)NC(SC(=S)N(CC(C)C)CC(C)C)C(Cl)(Cl)Cl (stereo not drawn) | inactive: 0.0902% |
| Cc1ccc(OP(=O)(Nc2ccccn2)Oc2ccc(C)cc2)cc1 | inactive: 10.8% |
| COC(=O)c1cc2c(s1)N=C(c1ccccc1)N(C)P2(=O)N1CCOCC1 (stereo not drawn) | inactive: -1.08% |
| CCC(=O)N1C2C3N(C(=O)CC)C1C1N(C(=O)CC)C(C(N1C(=O)CC)N3C(=O)CC)N2C(=O)CC | inactive: 0.124% |
| O=C(OC1CN2CCC1CC2)c1ccccc1 (stereo not drawn) | inactive: -5.16% |
| O=c1c2cc([N+](=O)[O-])ccc2[nH]c2c([N+](=O)[O-])cc([N+](=O)[O-])cc12 | inactive: -17.6% |
| CN(C)C(=O)Oc1noc2ccccc12 | inactive: 8.18% |
| CC(NC(=O)COC(=O)C(O)(c1ccccc1)c1ccccc1)c1ccccc1 (stereo not drawn) | inactive: -3.76% |
| Cc1ccccc1OP(=O)(Nc1ccccn1)Oc1ccccc1C | inactive: 0.242% |
